## Binding of CDR-mutated scFvs to a peptide of the spike HR2 region

Reference: Engelhart et al. 2022, doi:10.1038/s41597-022-01779-4. File: FLAb, binding data.

Target peptide (SARS-CoV-2 spike, HR2 region): PDVDLGDISGINAS

Ab-91 is the parent antibody, in scFv form: VL, then a 15-residue (Gly4Ser)3 linker, then VH. The light chain is unchanged in all variants.
VL: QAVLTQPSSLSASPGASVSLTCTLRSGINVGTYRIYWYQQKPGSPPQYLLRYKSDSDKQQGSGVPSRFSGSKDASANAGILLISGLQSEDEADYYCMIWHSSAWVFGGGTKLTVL
VH: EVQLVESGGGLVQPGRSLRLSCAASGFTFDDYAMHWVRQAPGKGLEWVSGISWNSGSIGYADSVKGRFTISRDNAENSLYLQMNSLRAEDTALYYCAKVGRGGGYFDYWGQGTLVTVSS

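The starting antibody came from a phage panning campaign against this peptide. Library AAYL51 holds single substitutions and randomly drawn double and triple substitutions in the CDRs. Affinity was read by AlphaSeq, a pooled yeast mating assay with surface-displayed partners. Binding brings cells together so that they mate, and sequencing counts the barcode pairs among the diploids. A regression on co-assayed BCL2-family reference pairs converts the normalised counts of each replicate to an apparent Kd. There are three technical replicates.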

Substitutions are numbered in sequence along the VH above, starting at 1 (not Kabat). Values are log10 of the apparent Kd in nM; lower means stronger binding. Where no diploid with the target was found in that replicate, the entry reads "n.d.": below detection, most likely a poor binder, though not proof of it.

| # | changes | log10 Kd, replicates | empty controls |
|---|---|---|---|
| 1 | D30F+Y60G+V64T | n.d. / n.d. / n.d. | 1/9 (4.32) |
| 2 | W53E+Y60M+V64L | n.d. / n.d. / n.d. | 0/9 |
| 3 | M34V+N54Q+G102T | n.d. / n.d. / 4.61 | 0/9 |
| 4 | D31A+I58G+A61N | n.d. / n.d. / n.d. | 1/9 (5.83) |
| 5 | G26M+G56W+G104V | n.d. / n.d. / n.d. | 1/9 (4.63) |
| 6 | H35A+A61Y+D62S | n.d. / n.d. / n.d. | 0/9 |
| 7 | T28D+S57P+F106W | 4.82 / 4.85 / n.d. | 3/9 (3.71) |
| 8 | A33V+Y108K | n.d. / 5.22 / n.d. | 1/9 (4.84) |
| 9 | S52T+K65N+D107Q | 4.19 / 5.44 / 4.82 | 5/9 (5.11) |
| 10 | G26D+V99P+Y105V | 5.53 / n.d. / n.d. | 5/9 (4.32) |
| 11 | Y32K+S52W+K65Y | 4.68 / n.d. / n.d. | 1/9 (4.41) |
| 12 | V64E+V99W | n.d. / 5.10 / 4.71 | 2/9 (4.51) |
| 13 | F29R+A33D+D107E | n.d. / n.d. / 3.04 | 2/9 (5.12) |
| 14 | F27H+G104R | n.d. / n.d. / 3.92 | 1/9 (4.69) |
| 15 | F27T+D31R+M34A | n.d. / n.d. / n.d. | 0/9 |
| 16 | G26V+F27Q+S63D | n.d. / 3.83 / n.d. | 0/9 |
| 17 | F27C+I51G+S63W | 5.48 / 5.48 / n.d. | 4/9 (4.67) |
| 18 | I51T+G59S+G102H | 6.01 / n.d. / n.d. | 2/9 (4.46) |
| 19 | T28W+H35I | n.d. / n.d. / n.d. | 0/9 |
| 20 | G50A+S57M+D62W | n.d. / n.d. / n.d. | 0/9 |
| 21 | T28A+N54K+S63T | 4.38 / n.d. / n.d. | 4/9 (5.08) |
| 22 | T28G+D62M+G100P | n.d. / n.d. / n.d. | 1/9 (4.04) |
| 23 | S52G+K65W+Y108M | 4.35 / n.d. / n.d. | 0/9 |
| 24 | D30Y+S63P+Y108M | 4.09 / 4.76 / n.d. | 3/9 (4.06) |
| 25 | G26N+D30P+S63E | 2.09 / 2.43 / 1.88 | 2/9 (4.96) |
| 26 | S57K+D62W+Y108C | 3.48 / 4.82 / n.d. | 1/9 (3.33) |
| 27 | Y32Q+Y60L+R101P | n.d. / n.d. / n.d. | 1/9 (3.29) |
| 28 | T28V+H35F+Y60G | n.d. / n.d. / n.d. | 1/9 (3.97) |
| 29 | A33K+G50C+G104K | 4.32 / n.d. / 4.13 | 1/9 (4.76) |
| 30 | G103P+Y105K | 1.29 / 1.28 / 0.93 | 1/9 (4.13) |
| 31 | Y32T+N54E | 5.30 / 3.79 / n.d. | 4/9 (4.84) |
| 32 | M34P+S63L+G104P | 4.08 / 4.62 / 4.95 | 5/9 (5.43) |
| 33 | F27I+K65G+G104S | n.d. / n.d. / n.d. | 0/9 |
| 34 | Y32L+G103M+G104D | 4.79 / 5.85 / 5.17 | 9/9 (5.10) |
| 35 | F29Q+S55I | n.d. / n.d. / n.d. | 0/9 |
| 36 | V64A | n.d. / n.d. / 3.71 | 1/9 (3.90) |
| 37 | H35R+W53M+G59W | 3.35 / n.d. / 4.10 | 3/9 (4.35) |
| 38 | I51L+S52E+R101W | n.d. / n.d. / n.d. | 4/9 (4.69) |
| 39 | G26H+S57M+D62M | n.d. / 5.86 / 3.59 | 2/9 (4.90) |
| 40 | M34P+G103E+Y105S | n.d. / n.d. / n.d. | 0/9 |
| 41 | G26A+A61D+V64K | 3.84 / 3.52 / n.d. | 1/9 (5.98) |
| 42 | M34G+N54I+Y60V | n.d. / n.d. / n.d. | 1/9 (4.89) |
| 43 | I51A+V64T | n.d. / n.d. / n.d. | 3/9 (4.38) |
| 44 | T28D+S63M+V99Y | n.d. / 4.04 / 4.61 | 3/9 (3.76) |
| 45 | Y32H+I51S+Y60N | n.d. / n.d. / n.d. | 1/9 (3.94) |

Again, the first 3 entries without any signal:

changes,"log10 Kd, replicates",empty controls
D30F+Y60G+V64T,n.d. / n.d. / n.d.,1/9 (4.32)
W53E+Y60M+V64L,n.d. / n.d. / n.d.,0/9
D31A+I58G+A61N,n.d. / n.d. / n.d.,1/9 (5.83)

Parent in this assay: reference entry 1.86, copy in this library 0.88. Empty control strains, which show no peptide, gave a signal in 21% of pairings with library AAYL51; the median was 4.54 and 95% of these signals were weaker than 3.26. No background was subtracted. The control count says in how many pairings with the empty strains this scFv gave a signal, with their mean in brackets.